Laboratory results taken from PubChem BioAssay AID1046 (PCMD, 2008).
The entries are a selection whose mix differs from that of the whole data set. Some of these compounds have results that are not shown, active ones among them. The source made the active and inactive calls.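 Rule for the calls: active = inhibition at or above 40%; inactive = inhibition below 40%.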

target: Prothrombin (Homo sapiens) (UniProt P00734); assay: blockers of thrombin peptide substrate cleavage – biochemical, 1536-well, fluorogenic AMC substrate, counter-screen for coagulation protease inhibitor project, primary screen (AID 1046); details: alpha-thrombin, Boc-VPR-AMC fluorogenic substrate cleavage; at 5 µM; hits give high values;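 note: 0% = enzyme with no compound and 100% = wells without enzyme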

| SMILES | inhibition |
| --- | --- |
| O=C(NCC1(N2CCCCC2)CCCCC1)c1cc([N+](=O)[O-])ccc1Cl | inactive: -0.86% |
| CC(C)N1C(=O)CC2(CCN(CCOC(=O)C(O)(c3ccccc3)c3ccccc3)CC2)C1=O | inactive: -3.61% |
| CCN(CC)CC(C)C(C)OC(=O)C(O)(c1ccccc1)c1ccccc1 (stereo unspecified) | inactive: -2.85% |
| Cc1ccccc1C(=O)NCC1(N2CCCCC2)CCCCC1 | inactive: -2.41% |
| CN(C)C1CCCC1OC(=O)C(O)(c1ccccc1)c1ccccc1 (stereo unspecified) | inactive: -3.95% |
| CCN1CCCC(OC(=O)C2(O)c3ccccc3C=Cc3ccccc32)C1 (stereo unspecified) | inactive: 0.34% |
| C=CCN1CCN(CCOC(=O)C(O)(c2ccccc2)c2ccccc2)CC1 | inactive: -9.82% |
| COc1cccc(C(=O)NCC2(N3CCCCC3)CCCCC2)c1 | inactive: -3.34% |
| O=C(OC1CN2CCC1CC2)C(CO)(c1ccccc1)c1ccccc1 (stereo unspecified) | inactive: -3.02% |
| CN(C)c1cccc(C(=O)NCC2(N(C)C)CCCCC2)c1 | inactive: 2.94% |
| COc1ccc(Br)c(C(=O)NCC2(N3CCCCC3)CCCCC2)c1 | inactive: 0.45% |
